Source: US7250408B2, “Glucocorticoid receptor antagonists for prophylaxis and therapy of glucocorticoid-mediated hypogonadism, of sexual dysfunction and/or infertility” (Bayer Schering Pharma AG, priority 2002, dated 2007)

Assays:
Progesterone Receptor = molecular target: T1, Progesterone Receptor (Homo sapiens, UniProt P06401); assay: Progesterone receptor binding, relative binding affinity (RBA); conditions: RBA relative to progesterone = 100
T1 sequence (P06401 1-933): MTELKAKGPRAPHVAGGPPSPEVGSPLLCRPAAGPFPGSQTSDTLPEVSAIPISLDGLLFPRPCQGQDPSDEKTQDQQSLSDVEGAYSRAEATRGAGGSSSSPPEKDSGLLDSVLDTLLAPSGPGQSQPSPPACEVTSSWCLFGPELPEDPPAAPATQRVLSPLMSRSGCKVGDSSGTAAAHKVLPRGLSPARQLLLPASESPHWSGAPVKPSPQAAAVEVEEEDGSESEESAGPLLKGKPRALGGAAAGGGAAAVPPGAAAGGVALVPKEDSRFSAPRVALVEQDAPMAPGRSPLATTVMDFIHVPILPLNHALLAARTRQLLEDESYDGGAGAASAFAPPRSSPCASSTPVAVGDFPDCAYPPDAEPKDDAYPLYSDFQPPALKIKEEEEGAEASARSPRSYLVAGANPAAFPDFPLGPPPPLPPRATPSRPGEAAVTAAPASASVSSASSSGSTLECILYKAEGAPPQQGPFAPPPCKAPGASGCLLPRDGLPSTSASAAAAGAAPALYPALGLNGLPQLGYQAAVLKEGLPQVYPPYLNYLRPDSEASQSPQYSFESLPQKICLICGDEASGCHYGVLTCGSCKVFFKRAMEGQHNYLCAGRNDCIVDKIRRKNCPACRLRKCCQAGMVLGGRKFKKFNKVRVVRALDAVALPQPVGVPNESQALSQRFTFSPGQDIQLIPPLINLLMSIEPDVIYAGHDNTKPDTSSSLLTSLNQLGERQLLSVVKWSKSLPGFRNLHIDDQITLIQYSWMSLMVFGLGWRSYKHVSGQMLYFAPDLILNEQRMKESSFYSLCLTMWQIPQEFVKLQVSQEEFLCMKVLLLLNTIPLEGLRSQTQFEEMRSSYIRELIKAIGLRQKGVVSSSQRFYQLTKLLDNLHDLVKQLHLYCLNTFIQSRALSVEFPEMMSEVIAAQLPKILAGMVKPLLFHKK

Glucocorticoid Receptor = molecular target: T2, Glucocorticoid Receptor (Homo sapiens, UniProt P04150); assay: Glucocorticoid receptor binding, relative binding affinity (RBA); conditions: RBA relative to dexamethasone = 100
T2 sequence (P04150 1-777): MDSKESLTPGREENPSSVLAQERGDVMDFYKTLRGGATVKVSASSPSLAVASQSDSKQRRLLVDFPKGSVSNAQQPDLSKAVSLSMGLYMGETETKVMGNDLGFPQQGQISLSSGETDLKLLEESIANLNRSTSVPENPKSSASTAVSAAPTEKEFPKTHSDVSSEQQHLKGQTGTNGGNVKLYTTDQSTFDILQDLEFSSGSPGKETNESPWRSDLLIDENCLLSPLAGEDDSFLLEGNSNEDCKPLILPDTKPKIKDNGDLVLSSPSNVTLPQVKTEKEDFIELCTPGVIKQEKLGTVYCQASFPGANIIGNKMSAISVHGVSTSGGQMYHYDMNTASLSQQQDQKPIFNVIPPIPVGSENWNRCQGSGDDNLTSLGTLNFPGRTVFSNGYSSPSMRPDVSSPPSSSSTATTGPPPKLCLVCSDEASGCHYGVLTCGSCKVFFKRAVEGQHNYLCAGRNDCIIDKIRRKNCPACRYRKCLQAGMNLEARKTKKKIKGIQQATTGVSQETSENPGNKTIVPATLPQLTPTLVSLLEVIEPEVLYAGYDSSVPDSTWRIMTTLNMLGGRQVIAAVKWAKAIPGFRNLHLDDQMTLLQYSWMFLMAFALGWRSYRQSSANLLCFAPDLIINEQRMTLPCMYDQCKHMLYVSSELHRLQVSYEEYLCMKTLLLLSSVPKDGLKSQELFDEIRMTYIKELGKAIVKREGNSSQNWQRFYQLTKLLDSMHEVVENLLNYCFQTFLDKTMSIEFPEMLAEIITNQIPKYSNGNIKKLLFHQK

`CC#C[C@]1(O)CC[C@H]2[C@@H]3CCC4=CC(=O)CCC4=C3[C@@H](c3ccc(N(C)C)cc3)C[C@@]21C` [RU 38486, 11β-(4-dimethylamino)phenyl-17β-hydroxy-17α-propyn-1-yl-estra-4,9-dien-3-one, reference compound] was tested, and the “Relative Binding Affinity to Progesterone Receptor, %” value (Progesterone Receptor) was 504% and the “Relative Binding Affinity to Glucocorticoid Receptor, %” value (Glucocorticoid Receptor) was 683%.
